Experiment: Insulin oral delivery, rat studies: serum human insulin by ELISA
Conditions: no delivery agent, previous experiments
Method: The solution was vortexed, then heated (about 37° C.) and sonicated. The pH was adjusted to about 7 to 8.5 with NaOH or HCl. […] (For example, for compound 1a, a total of 258.5 ml 10N NaOH was added to 501 mg compound in 1.5 ml water, final pH 7.73.) Water was then added to bring the total volume to about 2.4 ml and vortexed. About 1.25 mg insulin from an insulin stock solution (15 mg/ml made from 0.5409 g insulin and 18 ml deionized water, adjusting with HCl and NaOH to pH 8.15 and to obtain a clear solution using 40 ml concentrated HCl, 25 ml 10N NaOH and 50 ml 1N NaOH) was added to the solution and mixed by inverting. The final delivery agent compound dose, insulin dose and dose volume amounts are listed below in Table 1.
The dosing and sampling protocols were as follows. […] Solution was administered by pressing the syringe plunger.
Serum insulin levels were determined with an Insulin ELISA Test Kit (Kit # DSL-10-1600 from Diagnostic Systems Laboratories, Inc., Webster, Tex.), modifying the standard protocol in order to optimize the sensitivity and linear range of the standard curve for the volumes and concentrations of the samples used in the present protocol. […] The five values for each time point were averaged and the results plotted as serum insulin concentration versus time.

Substance: human insulin
- levels of human insulin following oral dosing with human insulin alone: no measurable levels

Source: US7208178B2, “Polymorphs of sodium 4-[(4-chloro-2-hydroxybenzoyl) amino] butanoate” (Emisphere Technologies, Inc., priority 2000, dated 2007)
